Experimental data taken from patent US4009166A, “Pyrido(2,3-d) pyrimidinones” (Hisamitsu Pharmaceutical Co., Inc., priority 1974, dated 1977).

Tested on: dd-strain male mice
Settings: deaths 72 hours after administration

Cc1ccccc1-n1c(C)nc2ccccc2c1=O [methaqualone, reference compound]
acute toxicity i.p. (lethal dose): 300 to 1000 mg/kg
